{
  "sequences": {"note": "By UniProt entry, the sequences of proteins in these tests, tags left out.", "UniProt O43613, whole entry": "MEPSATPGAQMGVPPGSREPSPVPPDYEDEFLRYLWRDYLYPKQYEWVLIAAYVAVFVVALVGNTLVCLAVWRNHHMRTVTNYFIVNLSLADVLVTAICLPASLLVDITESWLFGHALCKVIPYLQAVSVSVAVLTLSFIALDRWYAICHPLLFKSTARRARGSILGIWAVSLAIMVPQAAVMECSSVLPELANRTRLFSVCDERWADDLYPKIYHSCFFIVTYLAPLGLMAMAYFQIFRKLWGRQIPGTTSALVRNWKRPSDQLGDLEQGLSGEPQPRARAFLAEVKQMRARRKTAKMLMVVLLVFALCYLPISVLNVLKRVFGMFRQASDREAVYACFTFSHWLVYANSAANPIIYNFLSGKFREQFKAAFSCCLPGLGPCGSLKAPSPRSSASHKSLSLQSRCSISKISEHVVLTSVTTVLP"},
  "source": "paper PMC3927067",
  "about": "(Journal of Computer-Aided Molecular Design, 2014)",
  "target": "hOX1R (Homo sapiens, UniProt O43613)",
  "test": "Orexin 1 receptor binding assay",
  "conditions": "OX1R Ki, mean of replicates",
  "data": [
    {"compound": "Cc1ccc(-n2nccn2)c(C(=O)N2CCN(c3nc4cc(Cl)ccc4o3)CC[C@H]2C)c1", "note": "[Compound 7, Suvorexant]", "values": [
      {"measurement": "Ki", "value": 0.54, "unit": "nM"}
    ]}
  ]
}
